The values below come from ChEMBL document CHEMBL1134215, “Influence of chain length and N-alkylation on the selective serotonin receptor ligand 9-(aminomethyl)-9,10-dihydroanthracene” (Bioorg Med Chem Lett, 2001).

One may read the Ki as a measure of affinity in units of concentration, obtained from inhibition or displacement.

This assay concerns the target T1, 5-hydroxytryptamine receptor 2C (Mus musculus, UniProt P34968).
T1 sequence (P34968 whole entry): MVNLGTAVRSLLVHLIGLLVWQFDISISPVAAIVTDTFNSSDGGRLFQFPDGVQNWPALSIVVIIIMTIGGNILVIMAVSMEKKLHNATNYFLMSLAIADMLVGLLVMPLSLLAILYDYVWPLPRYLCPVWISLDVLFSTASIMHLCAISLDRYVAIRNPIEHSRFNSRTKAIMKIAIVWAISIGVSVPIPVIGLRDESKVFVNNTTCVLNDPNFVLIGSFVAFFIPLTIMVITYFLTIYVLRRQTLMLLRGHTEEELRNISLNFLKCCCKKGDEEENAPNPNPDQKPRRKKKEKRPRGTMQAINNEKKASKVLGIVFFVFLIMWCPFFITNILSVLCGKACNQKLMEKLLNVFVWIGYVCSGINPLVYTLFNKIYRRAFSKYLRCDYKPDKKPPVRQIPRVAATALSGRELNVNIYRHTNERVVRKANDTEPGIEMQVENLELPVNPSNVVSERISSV
The experiment in a line: Binding affinity to 5-hydroxytryptamine 2C receptor using [3H]Mesulergine as radioligand in stably transfected NIH3T3 cells. It is filed as cell-based.

The molecule `CN(C)CCCN1c2ccccc2CCc2ccccc21` [IMIPRAMINE] showed a Ki of 160 nM.
